Drawing on patent US6083917, this text covers Ratio of [^3 H]Farnesyl Incorporated into Peptide/CVIM (ratio to CVIM) and transfer of [3H]farnesyl from [3H]FPP to p21^H-ras; half-maximal substrate concentration for one substance.

Test [1] addresses recombinant wild type human p21^H-ras protein (human) (UniProt P01112).

Consider “rat brain protein farnesyltransferase (enzyme)”, for which the Ratio of [^3 H]Farnesyl Incorporated into Peptide/CVIM (ratio to CVIM) in the test with N-Octanoyl-CVFM came out at 2.1; with N-AcCVWM it was 1.2; with N-AcHCVFM it was 0.96; with CVWM it was 0; with N-AcKCVFM, 2.8; with KCVFM, 0.77. The Ratio of [^3 H]Farnesyl Incorporated into Peptide/CVIM (ratio to CVIM) turned out to be 1.4 with N-AcPCVFM; 1.1 with N-AcCVFM; 1 with CVIM; 1.8 in the test with N-AcCVIM; 1.4 with N-AcECVFM; 2 with N-AcSCVFM. In addition, the Ratio of [^3 H]Farnesyl Incorporated into Peptide/CVIM (ratio to CVIM) in the test with CCVFM amounted to 1.5; with N-AcDCVFM it was 1.3; with N-AcMCVFM, 2.2; with N-CholylCVFM, 0.85; in the test with CVFM, 0; with N-AcGCVFM, 1.9. For the same substance, the Ratio of [^3 H]Farnesyl Incorporated into Peptide/CVIM (ratio to CVIM) with N-AcCCVFM is 1.2. Besides, the transfer of [3H]farnesyl from [3H]FPP to p21^H-ras; half-maximal substrate concentration in [1] came out at 5 µM.
